The text below walks through data of PubChem BioAssay AID686970 (National Center for Advancing Translational Sciences (NCATS), 2013).

Only a part is listed here, and it is no random draw. Records with an inconclusive call do not appear. Calls of active or inactive are those of the source. Calls follow the shape of the dose curve; as a rule, active = well fitted cell-killing curve with a large enough effect; inconclusive = small, poorly fitted or top-dose-only effect, or effect the other way; inactive = flat fitted curve, though single readings scatter.

This experiment can be described thus: qHTS for induction of synthetic lethality in tumor cells producing 2HG: qHTS for the HT-1080-NT fibrosarcoma cell line.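 Also: NT is the 2HG producing partner of a matched IDH1 knockdown line; 0% = DMSO-treated cells and -100% = media-only wells without cells; nearly all actives have a fitted effect of over 55% in size.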 As to conditions: HT-1080-NT fibrosarcoma viability, CellTiter-Glo ATP luminescence, 48 h; at 46.1 µM (top of the series) unless noted. (Quantitative high-throughput screening tests each substance at several concentrations.)
As for `CSc1ccc(C(=O)NCC2(N3CCOCC3)CCCCC2)cc1`, the activity, negative = less viability is inactive: -2.46%.

Turning to `O=C(NCC1(N2CCCCC2)CCCCC1)c1ccc(OC(F)F)cc1`, the activity, negative = less viability was inactive: -0.251%.

With `COc1cc(C(=O)NCC2(N3CCCCC3)CCCCC2)ccc1OC(F)F`, the activity, negative = less viability was inactive: 7.99%. The same measure for `O=C(NCC1(N2CCOCC2)CCCCC1)c1cc(=O)[nH]c2ccccc12`: inactive: -3.71%. As for `CN1CCN(CCOC(=O)C(O)(c2ccccc2)c2ccccc2)CC1`, the activity, negative = less viability was inactive: 6.27%. The same measure for `CC(C)c1ccc(C(=O)NCC2(N3CCOCC3)CCCCC2)cc1`: inactive: -7.02%. Under `COc1ccc(NC2CCN(C(=O)OC(C)(C)C)CC2)cc1` stands inactive: -19.9%; under `O=[N+]([O-])c1cc([N+](=O)[O-])c(NCC2CCS(=O)(=O)C2)c([N+](=O)[O-])c1` (stereo not given), inactive: -0.565%.

For the molecule `O=C(NCC1(N2CCCCC2)CCCCC1)c1cccc(C(F)(F)F)c1`, the activity, negative = less viability is inactive: -14.4%.

In the case of `COc1ccc(NC2CCN(CCc3ccccc3)CC2)c(OC)c1`, the activity, negative = less viability is inactive: -1.68%. Under `CCOC(=O)N1CCC(Nc2ccc(F)cc2)CC1` stands inactive: 2.1%; under `O=C(NCC1(N2CCCCC2)CCCCC1)c1ccc(F)cc1`, inactive: 1.19%. Under `O=P1(N(CCCl)CCCl)SCCCS1` stands inactive: -2.25%.

Turning to `CCCCOc1ccc(C(=O)NCC2(N3CCOCC3)CCCCC2)cc1`, the activity, negative = less viability was inactive: 10.3%. In the case of `O=C1CCN(Cc2ccccc2)CC1`, the activity, negative = less viability is inactive: -1.88%. As for `CC(C)(C)n1nnnc1C(c1ccccc1)N1CCC(n2c(=O)[nH]c3ccccc32)CC1` (stereo not given), the activity, negative = less viability was inactive: -1.41%. The same measure for `CCOc1ccc(C)cc1CN(CCCl)CCCl`: inactive: -0.586%. Under `COc1cc(C(=O)NCC2(N(C)C)CCCCC2)ccc1OC(F)F` stands inactive: -3.5%; under `CCOC(=O)N1CCC(Nc2cccc(C)c2)CC1`, inactive: 12.2%. With `O=c1[nH]c2ccccc2n1C1CCN(C(c2ccccc2)c2nnnn2C2CCCCC2)CC1` (stereo not given), the activity, negative = less viability was inactive: 2.12%. The same measure for `Cc1cccc(NC2(C#N)CCN(Cc3ccccc3)CC2)c1`: inactive: 21.1%.

For the molecule `CSc1ccccc1C(=O)NCC1(N2CCCCC2)CCCCC1`, the activity, negative = less viability is inactive: 0.147%. Under `CCC(c1nnnn1C1CCCC1)N1CCC(n2c(=O)[nH]c3ccccc32)CC1` (stereo not given) stands inactive: 20.6%; under `CC(C)(C)OC(=O)N1CCC(N(C(=O)c2ccccc2)c2ccc(F)cc2)CC1`, inactive: 14.5%; under `COc1ccc(C(=O)NCC2(N3CCCCC3)CCCCC2)c(OC)c1OC`, inactive: -12.9%. For `COc1ccc(C(=O)NCC2(N3CCCCC3)CCCCC2)cc1`, the activity, negative = less viability was inactive: -1.6%. The same measure for `O=C(NCC1(N2CCCCC2)CCCCC1)c1cccs1`: inactive: 1.23%; for `CCCCn1nnnc1C(CC)N1CCC(n2c(=O)[nH]c3ccccc32)CC1` (stereo not given): inactive: 5.56%; for `O=C(NCC1(N2CCCCC2)CCCCC1)c1ccc(=O)[nH]c1`: inactive: -1.03%. As to `O=C1C(O)=C([N+](=O)[O-])C(=O)C(O)=C1[N+](=O)[O-]`, the activity, negative = less viability is inactive: 13.4%. The same measure for `COc1ccc(Cl)cc1C(=O)NCC1(N2CCOCC2)CCCCC1`: inactive: -0.0527%; for `O=C(OC1CN2CCC1CC2)C1c2ccccc2Oc2ccccc21` (stereo not given): inactive: -6.99%.

Consider `O=c1[nH]c2ccccc2n1C1CCN(C(c2cc3ccccc3o2)c2nnnn2C2CCCCC2)CC1` (stereo not given), for which the activity, negative = less viability was inactive: 2.07%.

For `O=C(NCC1(N2CCCCC2)CCCCC1)c1ccc(Cl)s1`, the activity, negative = less viability is inactive: -8.36%.

With `N#CC1(Nc2ccccc2)CCN(Cc2ccccc2)CC1`, the activity, negative = less viability was inactive: -6.58%. In the case of `CCCCn1nnnc1C(c1ccc(OC)cc1)N1CCC(n2c(=O)[nH]c3ccccc32)CC1` (stereo not given), the activity, negative = less viability is inactive: -7.87%. Under `CCOC(=O)N1CCC(Nc2ccc(OC)cc2)CC1` stands inactive: 3.44%. Under `O=c1[nH]c2ccccc2n1C1CCN(C(c2ccccc2OC(F)(F)F)c2nnnn2C2CCCCC2)CC1` (stereo not given) stands inactive: 16.8%. Consider `O=C(NCC1(N2CCCCC2)CCCCC1)c1ccc(Cl)nc1`, for which the activity, negative = less viability is inactive: -0.409%. The same measure for `O=C(NCC1(N2CCOCC2)CCCCC1)c1cc2ccccc2o1`: inactive: 3.73%.
